Data: publication PMC3202625, “Pyruvate Kinase Triggers a Metabolic Feedback Loop that Controls Redox Metabolism in Respiring Cells” (Cell Metabolism, 2011)
Positions count from the first letter of the chain named.

Columns and labels:
[1] = substrate: O=C[C@H](O)COP(=O)(O)O; assay: TPI activity assay, Michaelis-Menten kinetics; assay type: biochemical; conditions: yeast extract expressing human TPI; no PEP
[2] = substrate: O=C[C@H](O)COP(=O)(O)O; assay: TPI activity assay, Michaelis-Menten kinetics; assay type: biochemical, Oryctolagus cuniculus; conditions: purified muscle enzyme; no PEP

B1: human TPI (expressed in yeast) (Homo sapiens) (protein)
chain: APSRKFFVGGNWKMNGRKQSLGELIGTLNAAKVPADTEVVCAPPTAYIDFARQKLDPKIAVAAQNCYKVTNGAFTGEISPGMIKDCGATWVVLGHSERRHVFGESDELIGQKVAHALAEGLGVIACIGEKLDEREAGITEKVVFEQTKVIADNVKDWSKVVLAYEPVWAIGTGKTATPQQAQEVHEKLRGWLKSNVSDAVAQSTRIIYGGSVTGATCKELASQPDVDGFLVGGASLKPEFVDIINAKQ
notes: human TPI expressed in transgenic yeast lacking endogenous TPI1; extract, activity normalized to total cellular protein; homodimer
Work on B1 yielded a Km [1] of 710 µM.

B2: rabbit TPI (purified from muscle) (Oryctolagus cuniculus) (protein)
chain: B1 chain with Q19K, S20N, G26T, A118S
notes: native enzyme purified from rabbit muscle; homodimer
B2 was tested, and the Km [2] was 698 µM.
